Earlier results, collected in patent US11612641B2, “Method for treating Huntingtons's disease” (UNIVERSITY OF IOWA RESEARCH FOUNDATION, priority 2014, dated 2023).

Biological target: mTOR (Homo sapiens, UniProt P42345)
Conditions: including functions resistant to rapamycin (Thoreen et al., 2009); cited from earlier work

For `CCC(=O)N1CCN(c2ccc(-n3c(=O)ccc4cnc5ccc(-c6cnc7ccccc7c6)cc5c43)cc2C(F)(F)F)CC1` [Torin1], the “inhibition of TOR functions” value is given as “potently inhibits”.
